This assay addresses full length wild-type human VEGFR-2 (human) (UniProt P35968). The experiment in a line: cross-linking; CHO cells expressing full length VEGFR-2, starved 24 hr (no ligand), cell surface cross-linking with 2 mM BS3 for 30 min at room temperature, Western blot with anti-VEGFR-2. Background: Immunoblotting shows a protein as a band on a membrane.

By UniProt entry, the sequences of proteins in these tests, tags left out. Where a name states a change or a piece, a line headed by the entry shows the natural chain unless it says otherwise.
UniProt P35968: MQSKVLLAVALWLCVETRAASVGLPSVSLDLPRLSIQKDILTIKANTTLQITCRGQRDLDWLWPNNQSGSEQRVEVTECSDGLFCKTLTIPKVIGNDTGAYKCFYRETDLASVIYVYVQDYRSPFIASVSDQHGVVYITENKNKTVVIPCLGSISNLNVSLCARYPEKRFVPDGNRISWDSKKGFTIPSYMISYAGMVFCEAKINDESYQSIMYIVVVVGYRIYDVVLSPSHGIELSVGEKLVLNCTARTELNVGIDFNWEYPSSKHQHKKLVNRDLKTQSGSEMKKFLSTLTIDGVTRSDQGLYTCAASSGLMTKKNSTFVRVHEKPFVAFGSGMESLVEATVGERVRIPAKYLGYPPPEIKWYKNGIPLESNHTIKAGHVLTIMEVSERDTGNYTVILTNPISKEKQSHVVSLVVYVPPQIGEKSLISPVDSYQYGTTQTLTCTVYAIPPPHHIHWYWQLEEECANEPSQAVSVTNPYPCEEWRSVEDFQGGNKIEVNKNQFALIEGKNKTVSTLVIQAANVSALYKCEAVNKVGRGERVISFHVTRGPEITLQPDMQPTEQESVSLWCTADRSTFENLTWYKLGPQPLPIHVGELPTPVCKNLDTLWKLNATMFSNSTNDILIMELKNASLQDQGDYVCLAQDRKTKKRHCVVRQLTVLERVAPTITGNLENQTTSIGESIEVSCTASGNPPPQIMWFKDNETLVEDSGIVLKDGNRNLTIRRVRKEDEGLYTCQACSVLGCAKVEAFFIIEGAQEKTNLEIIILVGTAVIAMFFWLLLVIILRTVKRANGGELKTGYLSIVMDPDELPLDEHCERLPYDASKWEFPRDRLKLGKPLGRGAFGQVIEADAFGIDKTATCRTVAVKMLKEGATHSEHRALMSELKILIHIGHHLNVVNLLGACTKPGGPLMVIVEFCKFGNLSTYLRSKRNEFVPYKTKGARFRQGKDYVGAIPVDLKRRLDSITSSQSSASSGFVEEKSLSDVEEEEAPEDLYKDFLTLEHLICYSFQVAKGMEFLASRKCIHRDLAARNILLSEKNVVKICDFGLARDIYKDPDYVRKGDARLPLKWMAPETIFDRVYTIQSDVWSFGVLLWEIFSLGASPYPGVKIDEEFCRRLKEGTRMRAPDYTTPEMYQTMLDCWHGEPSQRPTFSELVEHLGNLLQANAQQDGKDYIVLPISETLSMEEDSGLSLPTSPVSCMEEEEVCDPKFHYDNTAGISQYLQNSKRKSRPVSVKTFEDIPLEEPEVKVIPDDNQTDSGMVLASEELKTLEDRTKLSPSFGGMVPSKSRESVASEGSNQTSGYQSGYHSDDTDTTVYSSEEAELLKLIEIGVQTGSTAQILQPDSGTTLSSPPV

Usually stoichiometry N stands for a count of units in the complex or per binding partner. In turn, “full length wild-type human VEGFR-2 (a stretch of the chain, chain not printed) (receptor; other documents disagree on this pair)” registered a stoichiometry N of 2.
